The values that follow are results of earlier work, collected in US20070053968A1 (Wyeth, priority 2005, published 2007).

By UniProt entry, the sequences of proteins in these tests, tags left out.
UniProt P23975, whole entry: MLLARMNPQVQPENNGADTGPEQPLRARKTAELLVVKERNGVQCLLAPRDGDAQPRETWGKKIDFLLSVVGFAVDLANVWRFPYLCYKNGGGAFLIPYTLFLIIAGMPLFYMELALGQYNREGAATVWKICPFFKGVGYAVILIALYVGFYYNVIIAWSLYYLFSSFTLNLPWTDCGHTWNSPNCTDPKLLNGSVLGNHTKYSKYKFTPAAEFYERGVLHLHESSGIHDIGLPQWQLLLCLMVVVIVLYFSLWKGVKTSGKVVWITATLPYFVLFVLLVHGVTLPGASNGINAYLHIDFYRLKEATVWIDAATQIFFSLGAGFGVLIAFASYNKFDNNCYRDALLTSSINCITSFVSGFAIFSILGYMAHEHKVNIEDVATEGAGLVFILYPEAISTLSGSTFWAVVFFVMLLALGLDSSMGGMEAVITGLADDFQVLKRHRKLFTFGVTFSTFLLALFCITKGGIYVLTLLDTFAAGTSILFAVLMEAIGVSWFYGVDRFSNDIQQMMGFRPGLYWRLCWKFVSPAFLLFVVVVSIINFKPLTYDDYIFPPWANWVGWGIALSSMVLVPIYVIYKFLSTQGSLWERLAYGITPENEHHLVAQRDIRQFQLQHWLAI
UniProt P31645, whole entry: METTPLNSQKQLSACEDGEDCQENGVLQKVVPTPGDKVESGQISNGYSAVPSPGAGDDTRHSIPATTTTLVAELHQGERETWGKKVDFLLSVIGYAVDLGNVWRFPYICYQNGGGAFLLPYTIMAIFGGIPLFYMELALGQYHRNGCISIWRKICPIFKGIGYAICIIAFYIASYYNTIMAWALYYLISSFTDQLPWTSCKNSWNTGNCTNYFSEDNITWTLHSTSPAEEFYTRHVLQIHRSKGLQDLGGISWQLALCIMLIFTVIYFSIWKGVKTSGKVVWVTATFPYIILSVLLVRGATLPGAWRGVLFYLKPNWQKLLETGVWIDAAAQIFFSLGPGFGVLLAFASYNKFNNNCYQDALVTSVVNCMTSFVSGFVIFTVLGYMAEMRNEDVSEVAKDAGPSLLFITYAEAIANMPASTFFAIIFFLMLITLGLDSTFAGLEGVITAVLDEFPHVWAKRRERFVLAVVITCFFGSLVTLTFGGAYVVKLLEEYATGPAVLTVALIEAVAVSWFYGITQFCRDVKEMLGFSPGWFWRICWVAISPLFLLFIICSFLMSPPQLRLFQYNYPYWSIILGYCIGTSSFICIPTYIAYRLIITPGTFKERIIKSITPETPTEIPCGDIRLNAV

Each structure is given as a SMILES string.

For series [1], the target named is neuronal norepinephrine re-uptake (Homo sapiens, UniProt P23975).
The target in series [2] is neuronal serotonin re-uptake (Homo sapiens, UniProt P31645).

Take `CN(C)CC(c1ccc(O)cc1)C1(O)CCCCC1` (stereo not shown) [ODV]: the “inhibition of neuronal norepinephrine re-uptake” value in series [1] is recorded as “potent inhibitors”. In series [1] (in vitro studies, versus venlafaxine), the “potency of norepinephrine re-uptake inhibition compared with venlafaxine” value is “more potent inhibitor”. In series [2], the “inhibition of neuronal serotonin re-uptake” value was “potent inhibitors” and the “potency of serotonin re-uptake inhibition compared with venlafaxine” value was “more potent inhibitor”.
